Measurements published in paper PMC12196007 (Molecules, 2025).

Experiment: In situ single-pass intestinal perfusion
Assay type: in vivo, Sprague–Dawley (SD) rats
Settings: ileum, 90 min
Protocol: The rats were anesthetized and secured in a supine position on a surgical platform maintained at 37 °C. […] A 10 cm intestinal segment was isolated, and incisions were made at both ends. Silicone tubes were inserted into the incisions and ligated. […] Subsequently, the test sample was perfused through the intestinal loop. […] The collected samples were centrifuged, and the supernatant was mixed with methanol to precipitate proteins. After a second centrifugation, the resulting supernatant was analyzed by HPLC.

Q: Which Remaining dosage does the source give for `COc1cc(/C=C/C(=O)CC(=O)/C=C/c2ccc(O)c(OC)c2)ccc1O` [CUR, Curcumin] here?
A: The Remaining dosage was 58.61 ± 0.21%.
